Values quoted from earlier work in patent US20050043319A1, “Molecular target of neurotoxicity” (EXONHIT THERAPEUTICS SA, priority 2001, published 2005).

Tested on: Amyotrophic Lateral Sclerosis (ALS)
Settings: ALS patients; cited from earlier work

## Nc1nc2ccc(OC(F)(F)F)cc2s1 [Riluzole]
  extension of survival: about three
